Article PMC7126369, “Identification of a selective inhibitor of IDH2/R140Q enzyme that induces cellular differentiation in leukemia cells” (Cell Communication and Signaling : CCS, 2020)
Where a chain is given by its changes, count along the chain named. Read-outs that look alike come from different tables or passages of the source.

Legend:
[1] = target: T1, IDH2/R140Q (Homo sapiens, UniProt P48735, R140Q); assay: Diaphorase/resazurin coupled NADPH depletion enzymatic assay, IDH2/R140Q homodimer; type: biochemical; conditions: read-out: IC50 for α-KG reduction
T1 construct: FLAG (C); purchased BPS Bioscience
T1 sequence (P48735 40-452 R140Q): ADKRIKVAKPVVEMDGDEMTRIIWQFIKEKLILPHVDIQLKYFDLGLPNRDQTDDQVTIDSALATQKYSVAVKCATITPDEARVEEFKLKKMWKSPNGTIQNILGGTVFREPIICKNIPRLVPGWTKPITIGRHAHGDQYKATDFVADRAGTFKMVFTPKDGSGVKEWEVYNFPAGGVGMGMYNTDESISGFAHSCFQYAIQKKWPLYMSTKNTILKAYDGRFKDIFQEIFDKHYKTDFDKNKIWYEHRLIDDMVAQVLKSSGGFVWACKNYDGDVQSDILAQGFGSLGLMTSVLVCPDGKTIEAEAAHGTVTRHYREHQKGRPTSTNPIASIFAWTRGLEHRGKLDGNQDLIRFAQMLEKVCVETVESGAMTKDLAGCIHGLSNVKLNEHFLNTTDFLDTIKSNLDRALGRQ

[2] = target: T2, IDH2/WT (Homo sapiens, UniProt P48735); assay: Diaphorase/resazurin coupled NADPH production enzymatic assay, IDH2/WT; type: biochemical; conditions: incubation time 16 h, read-out: IC50 for isocitrate to α-KG
T2 construct: FLAG (C); purchased BPS Bioscience
T2 sequence (P48735 40-452): T1 sequence (P48735 40-452 R140Q) with Q101R
Procedure: The compounds were dissolved to a concentration of 20 mM in pure DMSO. Diaphorase/resazurin coupled NADPH deletion or production assays were used to measure the activity of IDH mutants or wild-type IDH (IDH/WT) enzymes. A mixture of IDH2/R140Q enzyme (0.60 μg/mL) and NADPH (30 μM) was prepared in 40 μL assay buffer that consists of 10 mM MgCl2, 150 mM NaCl, 50 mM K2HPO4/KH2PO4 (pH 7.5), 2 mM β-mercapoethanol, 0.05% BSA and 10% glycerol. Afterwards, 20 μL of the gradient concentrations of compound dilution were added to this mixture and incubated at 25 °C for 1 h or 16 h. Then, 20 μL of 4X assay buffer containing 16 mM α-KG was added to initiate the enzymatic reaction, which was allowed to proceed for 1 h at 25 °C. Likewise, the IDH2/WT enzyme (0.12 μg/mL) was mixed with NADP (50 μM) in 40 μL assay buffer, after which compound dilutions were added and incubated as the IDH2/R140Q enzyme assay. Further, 20 μL of 4X assay buffer containing 0.6 mM isocitrate was used for enzymatic reaction. Finally, for both the IDH2/R140Q and IDH2/WT enzymes assays, 40 μL of 3X detection buffer (assay buffer with 45 μg/mL diaphorase and 90 μM resazurin) was added to stop the reaction and incubated for 10 min at room temperature. Then, 40 μL of the resulting mixture was added into a 384-well dark plate in duplicate and the absorbance was measured using Envision (Ex/Em = 544/590 nm).

SMILES: O=C(Nc1cccc(C(F)(F)F)c1)Nc1cc(S(=O)(=O)NC2CC2)ccc1-c1ccsc1 [AGI-6780, reference compound]
- IC50 ([1]; incubation time 1 h): 16.4 nM
- IC50 ([1]; incubation time 16 h): 12.8 nM
- IC50 [2]: 99.9 nM
